Experimental data published in patent US8557797B2, “Triazolopyridine derivatives and their therapeutic use” (Chiesi Farmaceutici S.p.A., priority 2009, dated 2013).

Sequences of proteins named here, by UniProt entry; tags and fusion partners are left off.
UniProt Q16539, whole entry: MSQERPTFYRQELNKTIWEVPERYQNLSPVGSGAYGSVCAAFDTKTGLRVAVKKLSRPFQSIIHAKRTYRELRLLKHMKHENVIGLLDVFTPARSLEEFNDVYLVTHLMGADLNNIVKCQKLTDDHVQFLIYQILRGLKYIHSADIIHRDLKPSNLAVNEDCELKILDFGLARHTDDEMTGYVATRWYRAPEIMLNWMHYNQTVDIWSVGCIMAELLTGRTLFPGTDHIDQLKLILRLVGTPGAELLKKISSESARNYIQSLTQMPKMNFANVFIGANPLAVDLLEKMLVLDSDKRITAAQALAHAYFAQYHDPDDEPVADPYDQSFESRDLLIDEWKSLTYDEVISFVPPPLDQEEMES

Experiments:
p38α = p38α (Homo sapiens, UniProt Q16539); assay: p38 Kinase Assay (ATF-2 phosphorylation ELISA); conditions: read-out: p38α inhibition (IC50 values); 2 h pre-incubation, ATP 250 μM, 1% DMSO
Experimental: Human recombinant p38 enzyme expressed in E. coli and activated by incubation with MKK6 enzyme (Calbiochem #559324) is used as source of enzyme activity.
The assay is carried in high binding, clear, flat bottom 96 well assay plates which have been coated with recombinant ATF-2 (Biosource #PHF0043). Test compounds are incubated with p38 kinase for 2 h prior to initiating the kinase assay by the addition of ATP to obtain an assay concentration of 250 μM. Phosphorylation of ATF-2 is detected and quantified using an ELISA. This consists of sequential incubation in the presence of anti-phospho-ATF2, biotinylated anti-IgG and streptavidin-HRP. Incubation with an HRP chromogenic substrate (TMB) results in absorbance that is proportional to the amount of phosphorylated substrate produced. Absorbance is detected using a multiwell plate reader.
Compounds are diluted in DMSO prior to addition to assay buffer, the final DMSO concentration in the assay being 1%.
The IC50 is defined as the concentration at which a given compound achieves 50% inhibition of control.

[1] = test system: TNFα release from LPS activated THP-1 cells or PBMC's; assay: p38 Functional Assay (TNFα release after LPS); conditions: read-out: EC50 (inhibition of TNFα release), 1 h pre-treatment, 0.3% DMSO
Experimental: Inhibition of cellular p38 depresses the release of TNFα, a functional response which is quantified by measurement of the amount of TNFα in the supernatants of LPS activated THP-1 cells (an immortalised monocytic cell line) or peripheral blood mononuclear cells (PBMC's) isolated from freshly drawn human blood.
Cells seeded in 96 well plates are pre-treated by the addition of p38 inhibitors for 1 h followed by addition of lipopolysaccharide (LPS) to activate cytokine production and release. The amount of TNFα released into the cell supernatants is quantified using an R&D Systems enzyme linked immunosorbant assay (ELISA) kit (product DY210) following the manufacturers instructions.
Compounds are diluted in DMSO prior to addition, the final DMSO concentration in the assay being 0.3%. The EC50 is defined as the concentration at which a given compound achieves 50% inhibition of the control.

| Structure (SMILES) | IC50 (p38α) [nM] | EC50 [1] [nM] |
| --- | --- | --- |
| CC(C)c1nnc2ccc(Sc3ccc(CC(=O)Nc4cc(C(C)(C)C)nn4-c4cccc(CN5CCOCC5)c4)cc3)cn12 | 10 to 100 | 500 to 7000 |
| Cc1ccc(-n2nc(C(C)(C)C)cc2NC(=O)Cc2ccc(Sc3ccc4nnc(-c5c(Cl)cccc5Cl)n4c3)cc2)cc1 | < 10 | < 10 |
| Cc1ccc(-n2nc(C(C)(C)C)cc2NC(=O)Cc2ccc(Sc3ccc4nnc(-c5cccc(OCCN6CCOCC6)c5)n4c3)cc2)cc1 | < 10 | 10 to 100 |
| O=C(Cc1ccc(Sc2ccc3nnc(-c4cccc(OCCN5CCOCC5)c4)n3c2)cc1)Nc1cc(F)cc(N2CCOCC2)c1 | 100 to 500 | 100 to 500 |
